The values that follow are results of earlier work, collected in paper PMC8954540, “A New Class of PSMA-617-Based Hybrid Molecules for Preoperative Imaging and Intraoperative Fluorescence Navigation of Prostate Cancer” (Pharmaceuticals, 2022).

Amino acid sequences for entries named in this document (tags omitted).
UniProt Q04609, whole entry: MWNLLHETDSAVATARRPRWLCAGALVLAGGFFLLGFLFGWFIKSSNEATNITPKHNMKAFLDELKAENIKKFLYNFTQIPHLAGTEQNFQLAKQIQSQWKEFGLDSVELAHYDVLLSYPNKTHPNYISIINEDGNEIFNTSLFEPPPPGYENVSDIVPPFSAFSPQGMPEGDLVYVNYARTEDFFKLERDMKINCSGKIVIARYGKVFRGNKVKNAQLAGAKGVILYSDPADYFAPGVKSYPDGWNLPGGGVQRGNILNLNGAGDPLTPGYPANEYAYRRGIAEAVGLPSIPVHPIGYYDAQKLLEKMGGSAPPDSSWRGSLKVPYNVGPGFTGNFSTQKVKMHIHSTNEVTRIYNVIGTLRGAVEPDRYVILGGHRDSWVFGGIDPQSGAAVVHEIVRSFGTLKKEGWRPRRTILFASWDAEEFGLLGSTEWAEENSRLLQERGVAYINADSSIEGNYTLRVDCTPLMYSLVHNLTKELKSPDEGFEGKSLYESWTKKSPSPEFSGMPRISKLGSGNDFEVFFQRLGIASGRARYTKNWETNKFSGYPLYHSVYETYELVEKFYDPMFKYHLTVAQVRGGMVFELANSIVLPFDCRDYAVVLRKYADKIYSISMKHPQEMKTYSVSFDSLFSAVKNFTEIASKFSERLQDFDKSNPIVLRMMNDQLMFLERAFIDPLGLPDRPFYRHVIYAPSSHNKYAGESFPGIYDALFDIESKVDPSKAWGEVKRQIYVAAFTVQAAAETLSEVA

Each structure is given as a SMILES string.

The target of this data set is PSMA (Homo sapiens, UniProt Q04609). Conditions: radioligand of the competitive assay; cited from earlier work.

For the molecule `O=C(O)CC[C@H](NC(=O)N[C@@H](CCCCNC(=O)CCCCCNC(=O)CCc1ccc(O)c(CN(CCN(CC(=O)O)Cc2cc(CCC(=O)NCCCCCC(=O)NCCCC[C@H](NC(=O)N[C@@H](CCC(=O)O)C(=O)O)C(=O)O)ccc2O)CC(=O)O)c1)C(=O)O)C(=O)O`, the Kd was 3.8 nM.
